According to IntAct's records for PubMed 23435564:

B1: DNA polymerase III subunit alpha (Escherichia coli (strain K12)), P10443 (parent)
chain: MSEPRFVHLRVHSDYSMIDGLAKTAPLVKKAAALGMPALAITDFTNLCGLVKFYGAGHGAGIKPIVGADFNVQCDLLGDELTHLTVLAANNTGYQNLTLLISKAYQRGYGAAGPIIDRDWLIELNEGLILLSGGRMGDVGRSLLRGNSALVDECVAFYEEHFPDRYFLELIRTGRPDEESYLHAAVELAEARGLPVVATNDVRFIDSSDFDAHEIRVAIHDGFTLDDPKRPRNYSPQQYMRSEEEMCELFADIPEALANTVEIAKRCNVTVRLGEYFLPQFPTGDMSTEDYLVKRAKEGLEERLAFLFPDEEERLKRRPEYDERLETELQVINQMGFPGYFLIVMEFIQWSKDNGVPVGPGRGSGAGSLVAYALKITDLDPLEFDLLFERFLNPERVSMPDFDVDFCMEKRDQVIEHVADMYGRDAVSQIITFGTMAAKAVIRDVGRVLGHPYGFVDRISKLIPPDPGMTLAKAFEAEPQLPEIYEADEEVKALIDMARKLEGVTRNAGKHAGGVVIAPTKITDFAPLYCDEEGKHPVTQFDKSDVEYAGLVKFDFLGLRTLTIINWALEMINKRRAKNGEPPLDIAAIPLDDKKSFDMLQRSETTAVFQLESRGMKDLIKRLQPDCFEDMIALVALFRPGPLQSGMVDNFIDRKHGREEISYPDVQWQHESLKPVLEPTYGIILYQEQVMQIAQVLSGYTLGGADMLRRAMGKKKPEEMAKQRSVFAEGAEKNGINAELAMKIFDLVEKFAGYGFNKSHSAAYALVSYQTLWLKAHYPAEFMAAVMTADMDNTEKVVGLVDECWRMGLKILPPDINSGLYHFHVNDDGEIVYGIGAIKGVGEGPIEAIIEARNKGGYFRELFDLCARTDTKKLNRRVLEKLIMSGAFDRLGPHRAALMNSLGDALKAADQHAKAEAIGQADMFGVLAEEPEQIEQSYASCQPWPEQVVLDGERETLGLYLTGHPINQYLKEIERYVGGVRLKDMHPTERGKVITAAGLVVAARVMVTKRGNRIGICTLDDRSGRLEVMLFTDALDKYQQLLEKDRILIVSGQVSFDDFSGGLKMTAREVMDIDEAREKYARGLAISLTDRQIDDQLLNRLRQSLEPHRSGTIPVHLYYQRADARARLRFGATWRVSPSDRLLNDLRGLIGSEQVELEFD
B2: DNA polymerase III subunit epsilon (Escherichia coli (strain K12)), P03007 (parent)
chain: MSTAITRQIVLDTETTGMNQIGAHYEGHKIIEIGAVEVVNRRLTGNNFHVYLKPDRLVDPEAFGVHGIADEFLLDKPTFAEVADEFMDYIRGAELVIHNAAFDIGFMDYEFSLLKRDIPKTNTFCKVTDSLAVARKMFPGKRNSLDALCARYEIDNSKRTLHGALLDAQILAEVYLAMTGGQTSMAFAMEGETQQQQGEATIQRIVRQASKLRVVFATDEEIAAHEARLDLVQKKGGSCLWRA

Variants of: B1
Conditions: with dpo3b_ecoli dnaN

Row | effect of a mutation on the interaction | Variant
1 | increasing interaction | A921L;M923L

Variants of: B2
Conditions: with dpo3b_ecoli dnaN

Row | effect of a mutation on the interaction | Variant
2 | disrupting interaction | MSTAITRQIVLDTETTGMNQIGAHYEGHKIIEIGAVEVVNRRLTGNNFHVYLKPDRLVDPEAFGVHGIADEFLLDKPTFAEVADEFMDYIRGAELVIHNAAFDIGFMDYEFSLLKRDIPKTNTFCKVTDSLAVARKMFPGKRNSLDALCARYEIDNSKRTLHGALLDAQILAEVYLAMTGGATSMAFAMEGETQQQQGEATIQRIVRQASKLRVVFATDEEIAAHEARLDLVQKKGGSCLWRA [Q182A]

Variants of: B2
Conditions: with dpo3b_ecoli dnaN
Remark: another data set of the same source

Row | effect of a mutation on the interaction | Variant
3 | increasing interaction | MSTAITRQIVLDTETTGMNQIGAHYEGHKIIEIGAVEVVNRRLTGNNFHVYLKPDRLVDPEAFGVHGIADEFLLDKPTFAEVADEFMDYIRGAELVIHNAAFDIGFMDYEFSLLKRDIPKTNTFCKVTDSLAVARKMFPGKRNSLDALCARYEIDNSKRTLHGALLDAQILAEVYLAMTGGQLSPLPAMEGETQQQQGEATIQRIVRQASKLRVVFATDEEIAAHEARLDLVQKKGGSCLWRA [T183L;M185P;A186L;F187P]
